Legend:
[1] = target: cFLIP^tDED H7G mutant (human) (UniProt O15519); assay: crystal structure; FA^FuL_H9G-C8^FGLG-CF^H7G complex; proteins individually expressed in E. coli, complex co-purified by Ni-NTA and SEC (80 mM NaCl, 20 mM Tris pH 8.0); hanging drop, 20 °C; MR-SAD; 3.1 Å; one 1:5:4 complex per asymmetric unit; FADD DD not visible
[2] = target: wild-type cFLIP^tDED (human) (UniProt O15519); assay: cryo-EM structure; FA^FuL-C8^FuL_FGLG_CADA-CF complex; Complex A without cross-linking (7.5 Å) and Complex B stabilised by GraFix, glutaraldehyde (3.7 Å); Casp-8 protease domain and FADD DD not visible

| Substance | stoichiometry N [1] | stoichiometry N [2] |
| --- | --- | --- |
| cFLIP^tDED H7G mutant (from UniProt O15519 1-181) (domain or fragment) | 4 |  |
| wild-type cFLIP^tDED (from UniProt O15519 1-181) (domain or fragment) |  | 4 |
